From ChEMBL document CHEMBL1127578, “Phospholipase C inhibitors: a new class of cytotoxic agents” (J Med Chem, 1994) come the findings set out here.

By pKa is commonly meant the pH at which an ionisable group is half protonated.

The nature of data set [1]: Inhibitory activity against phospholipase C isolated from human melanoma; IN-Inactive.
Data set [2] can be described thus: pKa value was determined. The data set is classed as physicochemical.

As to `O=[N+]([O-])C1=Cc2ccccc2OC1Nc1cc([N+](=O)[O-])cc([N+](=O)[O-])c1` (centres undefined), the IC50 result in data set [1] is listed as “Not Active”. Further, in data set [2], the pKa is -4.53.

With `O=[N+]([O-])C1=Cc2ccccc2OC1Nc1ccc([N+](=O)[O-])cc1[N+](=O)[O-]` (centres undefined), in data set [1], the IC50 entry is listed as “Not Active”. Also, the pKa in data set [2] is 0.
